Tested on: macrophages differentiated from CD14+ monocytes
Assay: Macrophage activation and cytokine secretion assay
Format: cell-based, human
Settings: dilutions from 10 μM to 1 nM
Description: Peripheral blood mononuclear cells (PBMCs) were isolated from whole blood by ficoll density separation. Briefly, blood was diluted 1:2 with 0.5 mM EDTA solution in PBS, loaded onto a Ficoll-filled Leucosep tube (Greiner Bio-One), and centrifuged for 20 minutes at 1000×g. After centrifugation, the leukocyte/PBMC layer was collected and sequentially washed three times with 0.5 mM EDTA solution in PBS.
Monocytes (CD14+) were isolated from PBMCs using magnetic bead-based separation following vendor specifications, e.g., Biolegend MojoSort Human CD14 Selection Kit protocol. In brief, PBMCs were labeled with biotinylated antibodies against cell surface receptors for cells not in the population of interest. The labeled cells are then captured by streptavidin-coated magnetic beads and removed by magnetic incubation. […]
Supernatants were collected at 24, 48, and 72 hrs and cytokine secretion was analyzed by flow cytometry using a LEGENDplex assay (BioLegend). […] The beads were then stained and the captured cytokine composition assessed by flow cytometry.
M1 macrophage polarization is defined as increase in production of IL-12, TNF, IL-6, IL-8, IL-1B, MCP-1 and CCL2. Additionally, markers of M1 polarization that can be detected by RNA include Nos2. […] Additionally, markers of M2 polarization that can be detected by RNA include Arg1, IDO, PF4, CCL24, IL10, and IL4Ralpha.

CGRP (ACDTATCVTHRLAGLLSRSGGVVKNNFVPTNVGSKAF; Calcitonin gene-related peptide 1; UniProt P06881 83-119, looked up) [neuropeptide CGRP]
secretion of TNFα (M1 marker): increased
macrophage polarization (M1 or M2 phenotype): polarized toward an M1 phenotype
